Experimental data published in PMC7073924, “2-Aminomethylene-5-sulfonylthiazole Inhibitors of Lysyl Oxidase (LOX) and LOXL2 Show Significant Efficacy in Delaying Tumor Growth” (Journal of Medicinal Chemistry, 2019).

Biological target: T1, LOXL2 (Homo sapiens, UniProt Q9Y4K0)
T1 sequence (Q9Y4K0 26-774): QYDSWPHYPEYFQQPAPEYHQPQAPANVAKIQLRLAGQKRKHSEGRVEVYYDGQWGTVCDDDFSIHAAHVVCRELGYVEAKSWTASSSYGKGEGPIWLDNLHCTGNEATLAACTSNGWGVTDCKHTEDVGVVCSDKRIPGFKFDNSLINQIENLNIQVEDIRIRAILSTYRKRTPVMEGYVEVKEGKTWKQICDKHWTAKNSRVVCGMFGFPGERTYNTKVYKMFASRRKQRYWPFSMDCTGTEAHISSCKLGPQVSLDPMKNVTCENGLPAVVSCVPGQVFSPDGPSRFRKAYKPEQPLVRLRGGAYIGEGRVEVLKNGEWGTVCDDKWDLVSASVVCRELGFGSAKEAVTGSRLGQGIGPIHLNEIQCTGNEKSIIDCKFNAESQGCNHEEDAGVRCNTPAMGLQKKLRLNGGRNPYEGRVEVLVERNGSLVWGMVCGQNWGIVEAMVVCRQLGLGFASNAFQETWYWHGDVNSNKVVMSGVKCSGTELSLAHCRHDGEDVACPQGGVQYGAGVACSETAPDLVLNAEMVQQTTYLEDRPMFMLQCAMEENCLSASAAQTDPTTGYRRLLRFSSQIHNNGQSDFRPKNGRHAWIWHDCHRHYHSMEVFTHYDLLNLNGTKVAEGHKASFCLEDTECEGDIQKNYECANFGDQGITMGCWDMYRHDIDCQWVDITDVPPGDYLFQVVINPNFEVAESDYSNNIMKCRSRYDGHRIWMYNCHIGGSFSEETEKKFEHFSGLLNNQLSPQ
Experiment: LOXL2 enzyme assay (Promega ROS-Glo, cadaverine substrate)
Format: biochemical

| Compound | IC50 |
| --- | --- |
| NCc1nc(S(=O)(=O)c2ccc3ccccc3c2)cs1 [Compound 22a, (4-(Naphthalen-2-ylsulfonyl)thiazol-2-yl)methanamine Hydrochloride] | 0.895 µM and 0.828 µM |
| COc1cc(-c2ccccc2)cc(S(=O)(=O)c2cnc(CN)s2)c1 [Compound 7h, (5-((5-Methoxy-[1,1′-biphenyl]-3-yl)sulfonyl)thiazol-2-yl)methanamine Hydrochloride] | 0.27 µM and 0.255 µM |

Values joined by “and” are separate entries in the source; they are usually repeats but may differ in a detail not shown here. Equal entries are not always repeated. Structures can show the parent of a compound that is named as a salt.
